Columns and labels:
[1] = biological target: FIP200 claw domain, 1490-1594 (UniProt Q8TDY2); assay: displacement of p-CCPG1 FIR2 peptide from claw; conditions: reference: unmodified TNIP1 peptide as competitor; sites S123
[2] = biological target: FIP200 claw domain, 1490-1594 (UniProt Q8TDY2); assay: ITC; conditions: reference: unmodified TNIP1 FIR peptide

TNIP1 FIR motif (from UniProt Q15025) TNIP1_pS123 peptide as competitor
binding against the reference [1]: stronger

TNIP1 FIR motif (from UniProt Q15025) pS122 peptide
binding against the reference ([2]; sites S122): gained

TNIP1 FIR motif (from UniProt Q15025) pS123 peptide
binding against the reference ([2]; sites S123): gained

Source: PMC11367644, “Structural basis for TNIP1 binding to FIP200 during mitophagy” (The Journal of Biological Chemistry, 2024)
